Assay results from patent publication US20230120211A1, “HDAC Degrader” (University of Leicester, priority 2020, published 2023).

Amino acid sequences for entries named in this document (tags omitted). Residues count along the entry.
UniProt Q13547, whole entry: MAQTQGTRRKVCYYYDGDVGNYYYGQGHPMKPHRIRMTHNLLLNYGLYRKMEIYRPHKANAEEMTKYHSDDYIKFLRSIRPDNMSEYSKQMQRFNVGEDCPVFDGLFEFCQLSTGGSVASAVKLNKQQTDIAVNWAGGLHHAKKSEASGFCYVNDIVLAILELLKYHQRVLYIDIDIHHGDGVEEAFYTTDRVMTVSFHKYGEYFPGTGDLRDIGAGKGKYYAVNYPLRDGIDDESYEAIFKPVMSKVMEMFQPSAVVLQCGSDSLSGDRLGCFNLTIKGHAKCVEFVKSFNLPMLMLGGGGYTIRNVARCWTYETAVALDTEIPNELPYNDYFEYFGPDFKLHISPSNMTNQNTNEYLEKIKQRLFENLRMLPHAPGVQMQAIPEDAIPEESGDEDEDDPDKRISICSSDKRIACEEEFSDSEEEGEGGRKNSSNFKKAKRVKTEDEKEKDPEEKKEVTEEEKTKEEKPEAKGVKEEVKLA
UniProt Q92769, whole entry: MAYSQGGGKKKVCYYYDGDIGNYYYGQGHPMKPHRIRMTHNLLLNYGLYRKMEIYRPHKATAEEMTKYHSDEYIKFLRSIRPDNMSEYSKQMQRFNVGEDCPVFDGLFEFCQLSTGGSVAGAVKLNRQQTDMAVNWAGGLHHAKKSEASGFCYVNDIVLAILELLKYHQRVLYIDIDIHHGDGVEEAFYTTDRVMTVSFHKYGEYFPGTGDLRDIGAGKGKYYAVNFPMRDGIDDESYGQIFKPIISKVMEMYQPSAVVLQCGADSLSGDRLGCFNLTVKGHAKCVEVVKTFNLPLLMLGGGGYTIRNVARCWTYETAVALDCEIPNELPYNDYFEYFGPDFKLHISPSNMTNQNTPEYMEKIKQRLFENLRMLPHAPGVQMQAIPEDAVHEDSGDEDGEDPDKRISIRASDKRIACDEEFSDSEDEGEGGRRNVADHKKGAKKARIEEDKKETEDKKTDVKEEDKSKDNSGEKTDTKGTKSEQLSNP
UniProt O15379, whole entry: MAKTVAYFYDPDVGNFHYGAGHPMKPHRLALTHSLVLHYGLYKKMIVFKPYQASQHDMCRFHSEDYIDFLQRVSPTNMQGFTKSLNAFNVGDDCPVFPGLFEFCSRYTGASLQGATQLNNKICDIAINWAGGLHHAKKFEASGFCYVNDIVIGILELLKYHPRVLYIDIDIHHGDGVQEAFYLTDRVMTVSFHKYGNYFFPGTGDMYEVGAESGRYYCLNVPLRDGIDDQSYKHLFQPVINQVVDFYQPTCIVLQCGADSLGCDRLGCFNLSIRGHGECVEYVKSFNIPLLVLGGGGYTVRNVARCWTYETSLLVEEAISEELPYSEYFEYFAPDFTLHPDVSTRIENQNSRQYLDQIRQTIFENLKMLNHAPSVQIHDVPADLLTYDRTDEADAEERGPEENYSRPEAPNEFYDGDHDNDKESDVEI
UniProt Q9UKL0, 86-485 partner limits assumed: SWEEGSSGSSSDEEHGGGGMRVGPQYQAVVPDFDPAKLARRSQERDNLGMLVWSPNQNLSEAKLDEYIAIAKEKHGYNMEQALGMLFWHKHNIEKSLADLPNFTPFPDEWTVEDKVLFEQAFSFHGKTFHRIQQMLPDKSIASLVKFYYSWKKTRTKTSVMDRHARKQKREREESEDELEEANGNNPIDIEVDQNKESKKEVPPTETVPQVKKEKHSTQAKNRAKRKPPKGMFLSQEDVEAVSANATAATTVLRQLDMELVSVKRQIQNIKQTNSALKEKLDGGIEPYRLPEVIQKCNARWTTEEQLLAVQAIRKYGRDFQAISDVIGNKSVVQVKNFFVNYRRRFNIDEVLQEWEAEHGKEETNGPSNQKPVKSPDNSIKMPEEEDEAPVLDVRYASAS
UniProt Q9H147, whole entry partner: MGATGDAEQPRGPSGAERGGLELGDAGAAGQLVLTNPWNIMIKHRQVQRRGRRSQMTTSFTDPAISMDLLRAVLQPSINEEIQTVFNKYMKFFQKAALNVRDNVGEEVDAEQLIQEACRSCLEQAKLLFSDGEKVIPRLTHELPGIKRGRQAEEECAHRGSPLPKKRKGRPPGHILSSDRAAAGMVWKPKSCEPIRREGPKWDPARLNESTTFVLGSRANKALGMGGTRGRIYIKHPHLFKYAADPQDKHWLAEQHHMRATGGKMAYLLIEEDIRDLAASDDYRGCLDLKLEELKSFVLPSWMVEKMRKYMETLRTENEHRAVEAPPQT
UniProt Q09028, whole entry partner: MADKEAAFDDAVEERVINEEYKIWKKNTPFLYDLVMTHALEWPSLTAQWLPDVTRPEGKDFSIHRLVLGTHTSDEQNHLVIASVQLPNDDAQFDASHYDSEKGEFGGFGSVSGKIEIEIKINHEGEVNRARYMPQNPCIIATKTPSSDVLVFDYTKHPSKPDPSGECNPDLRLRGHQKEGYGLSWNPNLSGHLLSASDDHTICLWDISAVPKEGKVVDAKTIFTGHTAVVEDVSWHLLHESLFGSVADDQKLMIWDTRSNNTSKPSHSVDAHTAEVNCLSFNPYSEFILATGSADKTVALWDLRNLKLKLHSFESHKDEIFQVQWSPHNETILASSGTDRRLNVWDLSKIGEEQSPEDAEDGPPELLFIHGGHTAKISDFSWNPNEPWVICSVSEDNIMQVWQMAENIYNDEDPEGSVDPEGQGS
UniProt Q6PJG2, 628-887 partner limits assumed: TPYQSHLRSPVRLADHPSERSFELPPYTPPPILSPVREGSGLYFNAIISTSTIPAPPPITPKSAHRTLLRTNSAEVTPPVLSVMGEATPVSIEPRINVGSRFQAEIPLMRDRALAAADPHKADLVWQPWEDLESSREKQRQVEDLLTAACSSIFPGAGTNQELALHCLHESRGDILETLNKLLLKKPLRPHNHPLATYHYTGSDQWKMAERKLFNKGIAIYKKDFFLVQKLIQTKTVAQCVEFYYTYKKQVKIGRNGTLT
UniProt Q13330, 162-546 partner limits assumed: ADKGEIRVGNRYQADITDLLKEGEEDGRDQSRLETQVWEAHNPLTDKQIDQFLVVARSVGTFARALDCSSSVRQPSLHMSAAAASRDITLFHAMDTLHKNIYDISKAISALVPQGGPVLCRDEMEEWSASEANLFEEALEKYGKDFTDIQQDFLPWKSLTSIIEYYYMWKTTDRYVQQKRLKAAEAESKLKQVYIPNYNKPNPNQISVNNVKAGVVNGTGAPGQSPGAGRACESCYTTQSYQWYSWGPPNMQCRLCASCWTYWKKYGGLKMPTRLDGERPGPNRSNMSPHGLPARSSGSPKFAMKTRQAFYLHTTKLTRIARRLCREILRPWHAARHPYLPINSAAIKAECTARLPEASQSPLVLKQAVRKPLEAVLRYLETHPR

Tests used:
CoREST = CoREST (Homo sapiens, UniProt Q13547); assay: HDAC inhibition assay, CoREST complex (Table 1, run under different conditions); assay type: biochemical; conditions: read-out: CoREST IC50; Table 1 conditions (differ from FIG. 3)
NuRD = NuRD (Homo sapiens, UniProt Q13547); assay: HDAC inhibition assay, NuRD complex (Table 1); assay type: biochemical; conditions: read-out: NuRD IC50
MiDAC = MiDAC (Homo sapiens, UniProt Q13547); assay: HDAC inhibition assay, MiDAC complex (Table 1); assay type: biochemical; conditions: read-out: MiDAC IC50
HDAC1 = HDAC1 (Homo sapiens, UniProt Q13547); assay: HDAC1 degradation in HCT116 cells, quantitative western blot; conditions: HCT116, screened at 0.1, 1 and 10 μM; maximum degradation irrespective of concentration
HDAC2 = HDAC2 (Homo sapiens, UniProt Q92769); assay: HDAC2 degradation in HCT116 cells, quantitative western blot; conditions: HCT116, screened at 0.1, 1 and 10 μM; maximum degradation irrespective of concentration
HDAC3 = HDAC3 (Homo sapiens, UniProt O15379); assay: HDAC3 degradation in HCT116 cells, quantitative western blot; conditions: HCT116, screened at 0.1, 1 and 10 μM; maximum degradation irrespective of concentration
[1] = target: LSD1-CoREST-HDAC1 complex (Homo sapiens, UniProt Q13547); assay: fluorescent deacetylase assay with the LSD1-CoREST-HDAC1 complex (Example 2, FIG. 3A); assay type: biochemical; conditions: LSD1-CoREST-HDAC1 complex in vitro
H3K56ac = H3K56ac levels in E14 mouse embryonic stem cells, quantitative western blot; conditions: E14 mES cells, 24 h; CI-994 40 μM, Panobinostat 30 nM

Nc1ccccc1NC(=O)c1ccc(NC(=O)COCCOCCOCCNC(=O)COc2cccc3c2C(=O)N(C2CCC(=O)NC2=O)C3=O)cc1 (stereo not shown)
IC50 (CoREST): 3.7 µM
IC50 (NuRD): 3.24 µM
IC50 (MiDAC): 17.2 µM
HDAC1 Degrader (% Degradation) (HDAC1): 28%
HDAC 2 Degrader (% Degradation) (HDAC2): No
HDAC 3 degrader (% Degradation) (HDAC3): 43%

Cc1ncsc1-c1ccc(CNC(=O)[C@@H]2C[C@@H](O)CN2C(=O)[C@@H](NC(=O)CCCCC(=O)Nc2ccc(C(=O)Nc3ccccc3N)cc2)C(C)(C)C)cc1
IC50 [1]: directly comparable to CI-994
H3K56 acetylation level (H3K56ac): failed to alter histone acetylation levels

Nc1ccccc1NC(=O)c1ccc(NC(=O)CCCCCNC(=O)COc2cccc3c2C(=O)N(C2CCC(=O)NC2=O)C3=O)cc1 (stereo not shown)
IC50 [1]: directly comparable to CI-994
H3K56 acetylation level (H3K56ac): failed to alter histone acetylation levels
